In patent publication US8426447B2, “Spiro-tricyclic ring compounds as beta-secretase modulators and methods of use” (Amgen Inc., priority 2008, dated 2013):
pIC50: −log10 of the molar value.

By UniProt entry, the sequences of proteins in these tests, tags left out. Residues count along the entry.
UniProt P56817, 46-501 limits assumed: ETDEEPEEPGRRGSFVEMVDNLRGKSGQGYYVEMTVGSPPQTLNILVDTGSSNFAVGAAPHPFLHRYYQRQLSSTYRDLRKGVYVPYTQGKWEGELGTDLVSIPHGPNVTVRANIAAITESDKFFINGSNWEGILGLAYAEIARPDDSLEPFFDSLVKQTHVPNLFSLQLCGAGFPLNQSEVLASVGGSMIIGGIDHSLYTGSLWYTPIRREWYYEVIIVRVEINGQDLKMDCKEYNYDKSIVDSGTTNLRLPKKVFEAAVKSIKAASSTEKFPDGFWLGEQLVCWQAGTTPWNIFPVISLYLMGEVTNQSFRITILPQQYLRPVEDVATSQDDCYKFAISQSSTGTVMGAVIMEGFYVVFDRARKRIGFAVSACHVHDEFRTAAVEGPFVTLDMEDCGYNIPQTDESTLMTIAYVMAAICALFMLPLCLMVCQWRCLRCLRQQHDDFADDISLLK

Columns and labels:
BACE1 [1] = biological target: T1, BACE1 (Homo sapiens, UniProt P56817); assay: In Vitro Enzymatic BACE FRET (Fluorescence Resonance Energy Transfer) Assay; type: biochemical; conditions: read-out: BACE1 FRET assay
BACE1 [2] = biological target: T1, BACE1; assay: In Vitro BACE Cell-based Assay (HEK cell assay): Aβ40 in conditioned medium of cells stably expressing Amyloid Precursor Protein, sandwich ELISA; conditions: read-out: HEK cell assay

CN(C)CC#Cc1ccc2c(c1)[C@]1(COC(N)=N1)c1cc(-c3cncnc3)ccc1O2
IC50 (BACE1 [1]; Table III, IC50's in uM ranges): 0.1 to 1 µM
IC50 (BACE1 [2]; Table III, IC50's in uM ranges): < 0.1 µM

NC1=N[C@]2(CO1)c1ccccc1Oc1ccc(C(=O)NCC3CCCCC3)cc12
pIC50 (BACE1 [1]; Table IV, class symbols): < 5.30
pIC50 (BACE1 [2]; Table IV, class symbols): < 5.30

NC1=N[C@]2(CO1)c1cc(NC3CCOCC3)ccc1Oc1ccc(-c3cncnc3)cc12
pIC50 (BACE1 [1]): 6.00 to 7.00
pIC50 (BACE1 [2]): 6.00 to 7.00
